Data as given in ChEMBL document CHEMBL5715953, “A Potent, Selective, and Cell-Active Inhibitor of Human Type I Protein Arginine Methyltransferases” (ACS Chem Biol, 2016).

Amino acid sequences for entries named in this document (tags omitted). A change or cut given only in a name is not applied to a line headed by its entry.
UniProt Q99873, whole entry: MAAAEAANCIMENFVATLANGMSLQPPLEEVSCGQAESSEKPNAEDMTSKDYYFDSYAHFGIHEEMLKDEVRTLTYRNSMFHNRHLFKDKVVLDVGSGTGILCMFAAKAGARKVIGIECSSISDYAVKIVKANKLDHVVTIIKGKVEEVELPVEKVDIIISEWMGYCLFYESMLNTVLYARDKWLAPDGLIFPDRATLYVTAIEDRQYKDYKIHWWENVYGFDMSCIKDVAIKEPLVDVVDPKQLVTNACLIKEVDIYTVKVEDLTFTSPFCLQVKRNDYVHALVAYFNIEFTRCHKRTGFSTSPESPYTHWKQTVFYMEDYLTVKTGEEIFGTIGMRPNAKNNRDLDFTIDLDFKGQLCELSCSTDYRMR
UniProt O60678: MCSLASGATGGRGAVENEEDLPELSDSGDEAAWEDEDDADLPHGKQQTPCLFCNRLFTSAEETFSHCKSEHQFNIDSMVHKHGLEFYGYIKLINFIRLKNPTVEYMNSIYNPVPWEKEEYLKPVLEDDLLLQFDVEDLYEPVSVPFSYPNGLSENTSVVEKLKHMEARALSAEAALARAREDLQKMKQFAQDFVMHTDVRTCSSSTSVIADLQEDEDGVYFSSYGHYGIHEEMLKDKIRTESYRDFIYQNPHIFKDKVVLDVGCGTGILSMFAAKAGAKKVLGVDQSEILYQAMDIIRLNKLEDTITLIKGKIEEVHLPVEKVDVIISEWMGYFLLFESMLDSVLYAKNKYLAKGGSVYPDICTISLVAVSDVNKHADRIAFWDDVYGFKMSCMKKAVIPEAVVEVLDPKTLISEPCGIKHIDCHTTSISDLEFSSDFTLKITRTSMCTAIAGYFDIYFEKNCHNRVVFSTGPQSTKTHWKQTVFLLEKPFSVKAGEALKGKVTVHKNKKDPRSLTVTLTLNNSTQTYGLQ

Legend:
[1] = molecular target: T1, Protein arginine N-methyltransferase 1 (Homo sapiens, UniProt Q99873); assay: Inhibition of human PRMT1 using (3H) methylated biotin labelled peptide as substrate in presence of 3H-SAM by scintillation proximity assay
[2] = molecular target: T2, Protein arginine N-methyltransferase 3 (Homo sapiens, UniProt O60678); assay: Inhibition of human PRMT3 using (3H) methylated biotin labelled peptide as substrate in presence of 3H-SAM by scintillation proximity assay
[3] = molecular target: T3, Histone-arginine methyltransferase CARM1 (Homo sapiens, UniProt Q86X55); assay: Inhibition of human PRMT4 using (3H) methylated biotin labelled peptide as substrate in presence of 3H-SAM by scintillation proximity assay
T3 sequence (Q86X55 whole entry): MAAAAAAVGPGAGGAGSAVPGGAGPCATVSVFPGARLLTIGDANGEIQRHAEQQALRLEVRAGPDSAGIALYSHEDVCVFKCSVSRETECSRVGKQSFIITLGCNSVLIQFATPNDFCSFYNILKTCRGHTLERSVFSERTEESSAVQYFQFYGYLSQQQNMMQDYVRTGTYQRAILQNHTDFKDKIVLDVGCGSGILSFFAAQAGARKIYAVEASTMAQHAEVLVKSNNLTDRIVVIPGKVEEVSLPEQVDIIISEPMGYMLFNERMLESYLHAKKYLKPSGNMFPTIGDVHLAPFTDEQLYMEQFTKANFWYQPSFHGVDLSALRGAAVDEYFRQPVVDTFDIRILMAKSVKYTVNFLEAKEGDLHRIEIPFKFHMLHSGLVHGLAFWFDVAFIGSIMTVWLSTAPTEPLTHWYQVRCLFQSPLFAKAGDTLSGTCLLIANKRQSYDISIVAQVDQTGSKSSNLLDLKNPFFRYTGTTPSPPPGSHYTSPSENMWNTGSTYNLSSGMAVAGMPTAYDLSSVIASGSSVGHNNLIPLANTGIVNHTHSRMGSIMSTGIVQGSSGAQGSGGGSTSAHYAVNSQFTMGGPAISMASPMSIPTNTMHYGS

[4] = molecular target: T1, Protein arginine N-methyltransferase 1; assay: Binding affinity to human PRMT1 assessed as inhibition constant using (3H) methylated biotin labelled peptide as substrate in presence of 3H-SAM by scintillation proximity assay
[5] = molecular target: T2, Protein arginine N-methyltransferase 3
[6] = molecular target: T3, Histone-arginine methyltransferase CARM1

With `CN(CCN)Cc1c[nH]cc1-c1cccc(C(F)(F)F)c1` the IC50 [1] was 250 nM, the IC50 [2] was 1100 nM and the IC50 [3] was 260 nM. For the same compound, the Ki [4] was 120 nM, the Ki [5] was 550 nM and the Ki [6] was 120 nM.
